The assay addresses T1, Cytosolic phospholipase A2 (Homo sapiens) (UniProt P47712).
T1 sequence (whole entry): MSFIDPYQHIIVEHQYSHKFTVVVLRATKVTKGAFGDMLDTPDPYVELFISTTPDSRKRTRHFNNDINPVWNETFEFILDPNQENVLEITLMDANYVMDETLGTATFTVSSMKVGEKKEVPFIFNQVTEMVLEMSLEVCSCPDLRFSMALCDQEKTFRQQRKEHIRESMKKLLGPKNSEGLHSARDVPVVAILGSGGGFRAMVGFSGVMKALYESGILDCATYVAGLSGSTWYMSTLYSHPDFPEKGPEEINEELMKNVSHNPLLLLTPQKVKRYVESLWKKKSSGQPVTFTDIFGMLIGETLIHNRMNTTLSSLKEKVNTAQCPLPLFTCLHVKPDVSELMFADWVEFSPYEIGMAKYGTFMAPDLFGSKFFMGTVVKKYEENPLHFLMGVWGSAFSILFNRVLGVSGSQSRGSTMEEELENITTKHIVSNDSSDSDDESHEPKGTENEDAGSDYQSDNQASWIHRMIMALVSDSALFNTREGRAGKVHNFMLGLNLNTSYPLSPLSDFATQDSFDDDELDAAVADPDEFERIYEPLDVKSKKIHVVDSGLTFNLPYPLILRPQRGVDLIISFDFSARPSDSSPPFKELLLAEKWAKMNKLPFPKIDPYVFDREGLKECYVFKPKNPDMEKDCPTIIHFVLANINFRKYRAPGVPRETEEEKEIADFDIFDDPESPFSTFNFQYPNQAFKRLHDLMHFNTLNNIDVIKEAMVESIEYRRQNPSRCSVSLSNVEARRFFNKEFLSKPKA
The settings on record: filed as activator.

From ChEMBL document CHEMBL5523714, “Design, synthesis of ceramide 1-phosphate analogs and their affinity for cytosolic phospholipase A2 as evidenced by surface plasmon resonance” (Bioorg Med Chem Lett, 2024) come the findings set out here.

Take `CCCCCCCCCCCCC/C=C/[C@@H](O)[C@H](COP(=O)(O)OC)NC(=O)CCCCCCCCCCCCCCC`: the Ka is 0.6 10^6/M/s.
